Assay results as given in publication PMC8427951, “Design, synthesis, and preliminary evaluation of a potential synthetic opioid rescue agent” (Journal of Biomedical Science, 2021).

Protein sequences, listed by entry. Tags and fused reporters are not part of them. Lines headed by an entry give the natural chain unless they say otherwise; changes in a name come on top.
UniProt P35372, whole entry: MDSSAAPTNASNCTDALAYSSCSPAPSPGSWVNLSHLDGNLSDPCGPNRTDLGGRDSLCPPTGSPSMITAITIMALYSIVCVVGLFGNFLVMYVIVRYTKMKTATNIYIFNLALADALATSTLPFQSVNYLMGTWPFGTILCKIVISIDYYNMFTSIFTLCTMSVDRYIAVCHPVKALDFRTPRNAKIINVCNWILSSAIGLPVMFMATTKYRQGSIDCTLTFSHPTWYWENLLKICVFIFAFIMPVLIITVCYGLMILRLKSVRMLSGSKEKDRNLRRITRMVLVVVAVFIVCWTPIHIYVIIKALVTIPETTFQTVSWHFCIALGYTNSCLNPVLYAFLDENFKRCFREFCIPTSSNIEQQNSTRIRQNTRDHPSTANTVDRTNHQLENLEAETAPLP
UniProt P41145: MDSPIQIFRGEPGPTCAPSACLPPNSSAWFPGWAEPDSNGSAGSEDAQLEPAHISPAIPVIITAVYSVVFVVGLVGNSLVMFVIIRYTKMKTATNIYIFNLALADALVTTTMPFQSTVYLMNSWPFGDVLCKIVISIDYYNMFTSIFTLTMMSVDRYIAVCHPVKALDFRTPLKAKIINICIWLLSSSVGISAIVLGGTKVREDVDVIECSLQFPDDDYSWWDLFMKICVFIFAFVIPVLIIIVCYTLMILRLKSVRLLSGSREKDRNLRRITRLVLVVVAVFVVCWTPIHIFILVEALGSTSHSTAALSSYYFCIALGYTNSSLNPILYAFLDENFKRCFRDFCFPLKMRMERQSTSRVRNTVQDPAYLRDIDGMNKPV

Columns and labels:
[1] = target: human μ opioid receptor (MOR) (Homo sapiens, UniProt P35372); assay: cell-based; details: for EC50: MOR agonism EC50; for Emax: read-out: MOR agonism % efficacy
[2] = target: human κ opioid receptor (KOR) (Homo sapiens, UniProt P41145); assay: cell-based; details: for Emax: read-out: KOR agonism % efficacy

Row | Compound | EC50 [1] [nM] | EC50 [2] [nM] | Emax [2] [%] | Emax [1] [%]
1 | O=C(/C=C/c1ccc(Cl)cc1)N[C@@]12CCC(=O)[C@@H]3Oc4c(O)ccc5c4[C@@]31CCN(CC1CC1)[C@@H]2C5 [CCAM, clocinnamox, reference compound] | > 10000 |  |  | 
2 | CCC(=O)O[C@@]12CCC(=O)[C@@H]3Oc4c(O)ccc5c4[C@@]31CCN(CC1CC1)[C@@H]2C5 [Compound 14] | 4.98 | 1.56 | 58.7 | 19.6
3 | O=C1CC[C@@]2(OCCCC3CCCCC3)[C@H]3Cc4ccc(O)c5c4[C@@]2(CCN3CC2CC2)[C@H]1O5 [Compound 16] | 1.89 |  |  | 98.5
4 | CCCO[C@@]12CCC(=O)[C@@H]3Oc4c(O)ccc5c4[C@@]31CCN(CC1CC1)[C@@H]2C5 [Compound 20] | 6.57 | 0.67 | 39.1 | 38.7
5 | C=CCO[C@@]12CCC(=O)[C@@H]3Oc4c(O)ccc5c4[C@@]31CCN(CC1CC1)[C@@H]2C5 [Compound 21] | 0.72 | 0.12 | 41.2 | 37.4
6 | O=C1CC[C@@]2(OC[C@H](O)CO)[C@H]3Cc4ccc(O)c5c4[C@@]2(CCN3CC2CC2)[C@H]1O5 [Compound 22] | > 10000 | > 10000 |  | 
7 | CO[C@H]1CC[C@@]2(O)[C@H]3Cc4ccc(O)c5c4[C@@]2(CCN3CC2CC2)[C@H]1O5 [Compound 25] | 1.86 |  |  | 58.2
8 | CO[C@@H]1CC[C@@]2(O)[C@H]3Cc4ccc(O)c5c4[C@@]2(CCN3CC2CC2)[C@H]1O5 [Compound 26] | 0.88 |  |  | 39
9 | C=CCOC12CCC(=C)C3Oc4c(O)ccc5c4C31CCN(CC1CC1)C2C5 (stereo not shown) [Compound 28] | 0.34 | 0.14 | 44.1 | 38.3
10 | C=C1CC[C@@]2(OCCC)[C@H]3Cc4ccc(O)c5c4[C@@]2(CCN3CC2CC2)[C@H]1O5 [Compound 29] | 1.21 | 0.43 | 59.1 | 17
11 | C=C1CC[C@@]2(OC[C@H](O)CO)[C@H]3Cc4ccc(O)c5c4[C@@]2(CCN3CC2CC2)[C@H]1O5 [Compound 30] | > 10000 | > 10000 |  | 
